Measurements as given in PMC11237882 (2024).

Sequences of proteins named here, by UniProt entry; tags and fusion partners are left off. A change or cut given only in a name is not applied to a line headed by its entry.
UniProt Q7Z5R6: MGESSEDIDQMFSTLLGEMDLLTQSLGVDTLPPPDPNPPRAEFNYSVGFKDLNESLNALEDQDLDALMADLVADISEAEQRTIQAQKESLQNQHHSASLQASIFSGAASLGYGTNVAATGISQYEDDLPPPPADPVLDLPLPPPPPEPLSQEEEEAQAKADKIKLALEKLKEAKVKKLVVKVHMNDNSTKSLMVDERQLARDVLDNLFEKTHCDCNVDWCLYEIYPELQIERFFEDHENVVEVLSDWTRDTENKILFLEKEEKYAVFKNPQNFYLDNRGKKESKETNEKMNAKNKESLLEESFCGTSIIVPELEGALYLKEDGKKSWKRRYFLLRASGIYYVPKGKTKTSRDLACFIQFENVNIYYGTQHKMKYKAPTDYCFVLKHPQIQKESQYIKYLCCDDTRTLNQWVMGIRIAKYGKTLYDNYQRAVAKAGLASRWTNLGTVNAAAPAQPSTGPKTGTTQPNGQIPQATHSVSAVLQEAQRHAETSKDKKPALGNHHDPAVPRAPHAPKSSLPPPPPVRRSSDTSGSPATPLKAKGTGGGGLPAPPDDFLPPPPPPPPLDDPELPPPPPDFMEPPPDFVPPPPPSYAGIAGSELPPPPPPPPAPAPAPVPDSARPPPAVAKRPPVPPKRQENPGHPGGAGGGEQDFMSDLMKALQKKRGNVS
UniProt O60469: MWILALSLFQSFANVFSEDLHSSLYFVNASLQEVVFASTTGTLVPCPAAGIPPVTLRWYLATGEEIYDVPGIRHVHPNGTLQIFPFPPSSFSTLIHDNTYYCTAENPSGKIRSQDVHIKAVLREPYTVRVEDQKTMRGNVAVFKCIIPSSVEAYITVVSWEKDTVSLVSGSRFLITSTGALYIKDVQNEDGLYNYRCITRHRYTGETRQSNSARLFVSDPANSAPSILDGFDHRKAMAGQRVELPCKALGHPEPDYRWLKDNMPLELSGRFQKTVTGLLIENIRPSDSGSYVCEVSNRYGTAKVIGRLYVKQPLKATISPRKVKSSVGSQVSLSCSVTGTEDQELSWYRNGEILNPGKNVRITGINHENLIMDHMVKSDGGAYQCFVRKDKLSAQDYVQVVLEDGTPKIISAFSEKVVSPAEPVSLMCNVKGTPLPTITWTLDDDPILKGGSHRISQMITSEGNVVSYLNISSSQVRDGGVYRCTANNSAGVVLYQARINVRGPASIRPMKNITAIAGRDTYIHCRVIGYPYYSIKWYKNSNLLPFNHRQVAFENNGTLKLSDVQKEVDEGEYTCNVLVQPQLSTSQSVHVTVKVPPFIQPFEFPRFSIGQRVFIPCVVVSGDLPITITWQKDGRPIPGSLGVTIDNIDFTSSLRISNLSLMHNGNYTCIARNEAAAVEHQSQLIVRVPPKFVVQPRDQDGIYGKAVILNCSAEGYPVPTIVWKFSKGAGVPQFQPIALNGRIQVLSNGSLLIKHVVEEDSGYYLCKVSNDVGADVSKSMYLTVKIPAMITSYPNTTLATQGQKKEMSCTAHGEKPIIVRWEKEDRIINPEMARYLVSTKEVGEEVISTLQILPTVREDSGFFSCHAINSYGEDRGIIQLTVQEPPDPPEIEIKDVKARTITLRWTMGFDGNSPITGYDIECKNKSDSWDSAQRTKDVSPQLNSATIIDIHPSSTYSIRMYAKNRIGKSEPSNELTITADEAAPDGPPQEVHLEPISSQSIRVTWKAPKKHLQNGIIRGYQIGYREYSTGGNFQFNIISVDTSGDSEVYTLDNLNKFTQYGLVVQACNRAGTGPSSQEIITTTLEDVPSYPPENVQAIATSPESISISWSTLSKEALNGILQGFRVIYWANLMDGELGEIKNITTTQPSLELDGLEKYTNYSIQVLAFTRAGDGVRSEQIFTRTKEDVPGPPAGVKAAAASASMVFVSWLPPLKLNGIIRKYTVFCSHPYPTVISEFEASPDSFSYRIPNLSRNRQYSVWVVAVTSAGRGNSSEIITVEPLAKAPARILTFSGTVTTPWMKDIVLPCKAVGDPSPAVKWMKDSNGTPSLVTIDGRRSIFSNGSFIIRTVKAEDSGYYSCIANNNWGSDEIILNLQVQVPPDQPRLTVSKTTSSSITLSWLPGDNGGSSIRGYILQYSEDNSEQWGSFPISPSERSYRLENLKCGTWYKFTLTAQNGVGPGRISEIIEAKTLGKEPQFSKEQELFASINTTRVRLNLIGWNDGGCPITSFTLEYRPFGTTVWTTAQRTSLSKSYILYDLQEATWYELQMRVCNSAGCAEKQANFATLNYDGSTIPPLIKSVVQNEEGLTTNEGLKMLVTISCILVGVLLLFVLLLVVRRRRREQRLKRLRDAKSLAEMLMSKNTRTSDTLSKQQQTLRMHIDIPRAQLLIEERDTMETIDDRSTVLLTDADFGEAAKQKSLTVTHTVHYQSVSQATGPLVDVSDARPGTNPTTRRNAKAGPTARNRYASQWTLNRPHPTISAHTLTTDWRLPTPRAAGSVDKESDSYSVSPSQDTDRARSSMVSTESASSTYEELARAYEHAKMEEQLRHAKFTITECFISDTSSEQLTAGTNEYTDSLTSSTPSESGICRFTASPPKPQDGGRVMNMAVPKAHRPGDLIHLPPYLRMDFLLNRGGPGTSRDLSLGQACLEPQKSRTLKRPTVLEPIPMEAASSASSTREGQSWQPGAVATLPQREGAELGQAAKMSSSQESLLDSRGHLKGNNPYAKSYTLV
UniProt Q9Y6W5: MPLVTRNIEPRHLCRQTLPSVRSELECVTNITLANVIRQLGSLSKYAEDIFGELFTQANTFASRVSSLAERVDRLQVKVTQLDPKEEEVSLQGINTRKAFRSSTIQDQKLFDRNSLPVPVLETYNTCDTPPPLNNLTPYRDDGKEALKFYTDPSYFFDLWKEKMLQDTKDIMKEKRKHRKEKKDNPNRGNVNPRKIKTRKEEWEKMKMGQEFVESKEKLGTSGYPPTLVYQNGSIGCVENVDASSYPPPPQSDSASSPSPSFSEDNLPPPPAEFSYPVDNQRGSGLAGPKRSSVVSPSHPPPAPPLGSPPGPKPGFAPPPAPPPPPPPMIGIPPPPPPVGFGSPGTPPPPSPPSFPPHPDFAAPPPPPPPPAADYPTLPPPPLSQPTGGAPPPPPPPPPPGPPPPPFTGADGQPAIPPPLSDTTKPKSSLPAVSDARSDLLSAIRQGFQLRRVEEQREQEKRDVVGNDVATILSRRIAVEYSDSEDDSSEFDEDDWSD
UniProt Q16643: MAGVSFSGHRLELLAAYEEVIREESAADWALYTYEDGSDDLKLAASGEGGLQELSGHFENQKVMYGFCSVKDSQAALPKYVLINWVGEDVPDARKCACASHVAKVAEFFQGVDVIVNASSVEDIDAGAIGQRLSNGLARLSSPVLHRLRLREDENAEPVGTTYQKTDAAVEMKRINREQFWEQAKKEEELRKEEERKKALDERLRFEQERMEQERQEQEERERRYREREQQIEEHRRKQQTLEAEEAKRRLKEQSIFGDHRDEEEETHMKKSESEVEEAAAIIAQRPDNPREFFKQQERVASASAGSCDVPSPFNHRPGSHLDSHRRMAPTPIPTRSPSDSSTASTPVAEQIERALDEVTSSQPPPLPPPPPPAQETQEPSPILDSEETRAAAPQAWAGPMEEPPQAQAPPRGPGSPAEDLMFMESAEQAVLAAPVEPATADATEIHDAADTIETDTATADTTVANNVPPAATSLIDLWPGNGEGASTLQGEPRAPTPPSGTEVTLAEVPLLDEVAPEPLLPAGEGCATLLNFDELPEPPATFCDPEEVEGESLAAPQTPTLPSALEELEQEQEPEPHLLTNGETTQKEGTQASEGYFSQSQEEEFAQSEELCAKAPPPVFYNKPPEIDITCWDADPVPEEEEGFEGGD
UniProt P17676: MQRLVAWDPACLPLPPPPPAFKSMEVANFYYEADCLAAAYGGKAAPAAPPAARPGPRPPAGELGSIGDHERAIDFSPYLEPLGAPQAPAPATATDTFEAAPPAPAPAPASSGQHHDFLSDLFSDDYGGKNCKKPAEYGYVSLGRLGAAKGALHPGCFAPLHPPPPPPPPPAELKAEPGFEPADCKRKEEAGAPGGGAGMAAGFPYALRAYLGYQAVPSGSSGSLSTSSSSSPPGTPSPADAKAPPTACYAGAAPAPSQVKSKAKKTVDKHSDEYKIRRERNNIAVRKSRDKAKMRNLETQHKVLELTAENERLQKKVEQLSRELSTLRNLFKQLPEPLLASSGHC
UniProt Q969T9: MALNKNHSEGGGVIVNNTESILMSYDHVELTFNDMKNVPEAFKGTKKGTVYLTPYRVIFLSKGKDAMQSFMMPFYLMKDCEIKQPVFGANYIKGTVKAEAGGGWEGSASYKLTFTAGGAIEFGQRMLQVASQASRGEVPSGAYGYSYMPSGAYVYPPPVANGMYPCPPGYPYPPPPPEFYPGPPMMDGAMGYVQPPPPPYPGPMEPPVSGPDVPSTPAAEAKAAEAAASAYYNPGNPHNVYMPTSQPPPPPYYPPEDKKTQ
UniProt Q96QU1: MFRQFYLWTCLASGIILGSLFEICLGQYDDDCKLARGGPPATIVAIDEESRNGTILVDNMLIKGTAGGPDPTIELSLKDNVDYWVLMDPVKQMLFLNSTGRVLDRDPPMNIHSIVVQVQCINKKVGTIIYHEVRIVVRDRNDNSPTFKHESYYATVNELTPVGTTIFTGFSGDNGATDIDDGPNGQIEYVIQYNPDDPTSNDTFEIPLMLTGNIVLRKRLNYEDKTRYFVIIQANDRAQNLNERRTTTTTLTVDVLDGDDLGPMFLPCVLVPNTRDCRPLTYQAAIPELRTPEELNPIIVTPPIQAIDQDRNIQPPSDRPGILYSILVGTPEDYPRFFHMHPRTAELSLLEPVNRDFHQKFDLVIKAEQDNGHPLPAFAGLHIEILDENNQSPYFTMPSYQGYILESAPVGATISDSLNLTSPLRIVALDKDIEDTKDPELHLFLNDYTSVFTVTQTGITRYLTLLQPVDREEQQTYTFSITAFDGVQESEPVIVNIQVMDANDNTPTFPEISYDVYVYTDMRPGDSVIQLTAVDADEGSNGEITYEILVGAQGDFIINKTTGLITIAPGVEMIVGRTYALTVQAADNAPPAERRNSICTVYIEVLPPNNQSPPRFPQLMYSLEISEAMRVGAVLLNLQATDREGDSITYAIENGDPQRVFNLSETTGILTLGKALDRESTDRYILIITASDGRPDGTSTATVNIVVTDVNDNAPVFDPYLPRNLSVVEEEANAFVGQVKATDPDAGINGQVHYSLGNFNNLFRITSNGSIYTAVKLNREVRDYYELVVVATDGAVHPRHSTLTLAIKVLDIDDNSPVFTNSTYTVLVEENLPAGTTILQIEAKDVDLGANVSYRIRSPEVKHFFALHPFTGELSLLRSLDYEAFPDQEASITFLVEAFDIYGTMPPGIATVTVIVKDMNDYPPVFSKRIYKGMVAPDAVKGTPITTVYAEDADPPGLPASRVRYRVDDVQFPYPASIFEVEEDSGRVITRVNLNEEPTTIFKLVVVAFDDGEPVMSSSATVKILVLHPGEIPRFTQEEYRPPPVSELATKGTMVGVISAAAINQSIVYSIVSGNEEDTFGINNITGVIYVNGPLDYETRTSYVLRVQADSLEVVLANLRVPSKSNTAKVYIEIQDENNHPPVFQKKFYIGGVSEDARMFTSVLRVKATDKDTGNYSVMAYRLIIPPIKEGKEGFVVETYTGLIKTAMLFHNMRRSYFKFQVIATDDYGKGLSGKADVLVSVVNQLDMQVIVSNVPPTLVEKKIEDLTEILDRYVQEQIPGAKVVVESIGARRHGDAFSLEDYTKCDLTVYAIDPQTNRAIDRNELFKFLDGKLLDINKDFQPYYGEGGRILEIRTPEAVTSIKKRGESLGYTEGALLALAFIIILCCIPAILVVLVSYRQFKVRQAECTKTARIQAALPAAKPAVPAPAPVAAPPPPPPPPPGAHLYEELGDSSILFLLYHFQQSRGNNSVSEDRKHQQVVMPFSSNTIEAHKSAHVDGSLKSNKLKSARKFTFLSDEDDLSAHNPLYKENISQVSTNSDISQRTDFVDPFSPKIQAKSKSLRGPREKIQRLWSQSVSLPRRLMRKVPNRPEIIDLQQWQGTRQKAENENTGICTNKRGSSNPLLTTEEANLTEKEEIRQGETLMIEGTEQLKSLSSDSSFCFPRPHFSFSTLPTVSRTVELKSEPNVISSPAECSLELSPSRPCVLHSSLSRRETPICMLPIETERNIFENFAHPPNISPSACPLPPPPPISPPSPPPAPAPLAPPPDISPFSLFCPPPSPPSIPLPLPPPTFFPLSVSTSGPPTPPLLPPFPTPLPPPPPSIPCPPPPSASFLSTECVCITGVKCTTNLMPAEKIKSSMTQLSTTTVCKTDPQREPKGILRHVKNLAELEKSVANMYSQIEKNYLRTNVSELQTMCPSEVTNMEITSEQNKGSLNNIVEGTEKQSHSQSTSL

What was measured:
Test in all cases: BLI (SUMO-peptide on tip, monomeric EVH1)
[1] = biological target: T1, APBB1IP_2 (Homo sapiens (Human), UniProt Q7Z5R6)
T1 chain: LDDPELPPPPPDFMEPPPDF

[2] = biological target: T2, DSCAM (Homo sapiens (Human), UniProt O60469)
T2 chain: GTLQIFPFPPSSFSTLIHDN

[3] = biological target: T3, WASF2 (Homo sapiens (Human), UniProt Q9Y6W5)
T3 chain: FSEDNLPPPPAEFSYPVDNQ

[4] = biological target: T4, DBN1 (Homo sapiens (Human), UniProt Q16643)
T4 chain: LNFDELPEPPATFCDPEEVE

[5] = biological target: T5, IQSEC3 (Homo sapiens (Human), UniProt Q9UPP2)
T5 chain: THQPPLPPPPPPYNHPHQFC

[6] = biological target: T6, CEBPB (Homo sapiens (Human), UniProt P17676)
T6 chain: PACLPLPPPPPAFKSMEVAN

[7] = biological target: T7, ABI3 (Homo sapiens (Human), UniProt Q9P2A4)
T7 chain: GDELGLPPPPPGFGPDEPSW

[8] = biological target: T8, APBB1IP_1 (Homo sapiens (Human), UniProt Q7Z5R6)
T8 chain: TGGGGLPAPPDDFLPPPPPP

[9] = biological target: T9, WBP2 (Homo sapiens (Human), UniProt Q969T9)
T9 chain: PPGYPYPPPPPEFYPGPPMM

[10] = biological target: T10, PCDH15 (Homo sapiens (Human), UniProt Q96QU1)
T10 chain: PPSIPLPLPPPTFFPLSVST

Binder	Kd [1] [µM]	Kd [2] [µM]	Kd [3] [µM]	Kd [4] [µM]	Kd [5] [µM]	Kd [6] [µM]	Kd [7] [µM]	Kd [8] [µM]	Kd [9] [µM]	Kd [10] [µM]
HOMER1 (protein) MGEQPIFSTRAHVFQIDPNTKKNWVPTSKHAVTVSYFYDSTRNVYRIISLDGSKAIINSTITPNMTFTKTSQKFGQWADSRANTVYGLGFSSEHHLSKFAEKFQEFKEAARLA	25	55	13	12	38	37				
ENAH (protein) MSEQSICQARAAVMVYDDANKKWVPAGGSTGFSRVHIYHHTGNNTFRVVGRKIQDHQVVINCAIPKGLKYNQATQTFHQWRDARQVYGLNFGSKEDANVFASAMMHALEVLNS				57	57	57	26	26	12	108
